Test results published in patent US12139488B2, “Pyrido[3,2-d]pyrimidine compounds uses thereof for treating a proliferative disease” (Universite de Montreal, priority 2021, dated 2024).
Read-outs that look alike come from different tables or passages of the source.

Protein sequences, listed by entry. Tags and fused reporters are not part of them.
UniProt P15056, whole entry: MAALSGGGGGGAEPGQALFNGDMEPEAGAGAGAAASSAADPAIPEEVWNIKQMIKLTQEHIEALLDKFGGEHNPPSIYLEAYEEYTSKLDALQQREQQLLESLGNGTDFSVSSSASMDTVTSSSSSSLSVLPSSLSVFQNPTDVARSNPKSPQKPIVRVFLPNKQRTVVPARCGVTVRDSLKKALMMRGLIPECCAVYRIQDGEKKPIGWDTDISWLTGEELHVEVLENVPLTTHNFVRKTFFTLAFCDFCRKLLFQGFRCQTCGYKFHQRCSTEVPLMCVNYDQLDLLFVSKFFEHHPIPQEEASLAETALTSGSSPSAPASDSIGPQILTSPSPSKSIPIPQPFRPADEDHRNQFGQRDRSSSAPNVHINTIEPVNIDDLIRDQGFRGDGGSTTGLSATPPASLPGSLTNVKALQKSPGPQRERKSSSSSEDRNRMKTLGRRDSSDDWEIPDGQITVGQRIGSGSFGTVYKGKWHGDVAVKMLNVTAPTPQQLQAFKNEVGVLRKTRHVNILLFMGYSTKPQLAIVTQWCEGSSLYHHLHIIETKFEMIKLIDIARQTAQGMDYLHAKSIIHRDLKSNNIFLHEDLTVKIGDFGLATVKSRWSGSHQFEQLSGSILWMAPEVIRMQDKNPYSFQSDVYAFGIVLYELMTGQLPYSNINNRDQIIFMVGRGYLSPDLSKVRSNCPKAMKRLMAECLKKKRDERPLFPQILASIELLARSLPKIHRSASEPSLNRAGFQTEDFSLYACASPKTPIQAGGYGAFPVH
UniProt P04049, whole entry: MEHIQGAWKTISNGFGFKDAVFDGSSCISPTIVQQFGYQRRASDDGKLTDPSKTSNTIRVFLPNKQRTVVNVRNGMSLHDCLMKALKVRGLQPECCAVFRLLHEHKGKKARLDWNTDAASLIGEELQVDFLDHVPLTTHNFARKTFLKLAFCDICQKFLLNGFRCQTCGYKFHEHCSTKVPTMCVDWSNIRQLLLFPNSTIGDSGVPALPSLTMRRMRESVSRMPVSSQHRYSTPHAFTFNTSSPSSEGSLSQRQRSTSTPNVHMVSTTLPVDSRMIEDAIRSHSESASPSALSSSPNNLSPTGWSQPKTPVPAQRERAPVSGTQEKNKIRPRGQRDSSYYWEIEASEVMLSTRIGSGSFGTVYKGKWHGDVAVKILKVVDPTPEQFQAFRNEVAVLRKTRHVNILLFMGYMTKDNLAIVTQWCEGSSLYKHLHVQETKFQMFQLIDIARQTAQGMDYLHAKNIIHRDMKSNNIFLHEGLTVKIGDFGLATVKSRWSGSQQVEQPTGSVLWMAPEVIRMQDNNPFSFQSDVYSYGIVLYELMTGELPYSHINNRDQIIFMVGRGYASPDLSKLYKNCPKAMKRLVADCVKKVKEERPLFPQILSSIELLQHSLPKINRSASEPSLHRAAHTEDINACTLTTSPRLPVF

Assays:
BRAF = BRAF (Homo sapiens (Human), UniProt P15056); assay: BRAF kinase activity assay (ADP-Glo)
CRAF = CRAF (Homo sapiens, UniProt P04049); assay: CRAF kinase activity assay (ADP-Glo)
[1] = test system: pERK in HCT-116 cells (KRAS G13D); assay: Phospho-ERK inhibition (AlphaLISA SureFire Ultra p-ERK 1/2), HCT116; conditions: for HCT116 pERK % Ymin (lowest value of the IC50 curve): Ymin above −20% = minimal or no paradoxical activation
In short: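 Overnight-seeded cells received compound for an hour before lysis, and phospho-ERK1/2 was then measured with an AlphaLISA SureFire Ultra kit. Percent inhibition relative to vehicle, after trametinib background subtraction, gave IC50 by curve fitting.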

[2] = read-out: Kinase IC50 (nM) BRAF
[3] = read-out: Kinase IC50 (nM) CRAF
[4] = read-out: HCT116 pERK IC50, HCT116 cells, class symbol before the bracket
[5] = read-out: Kinase IC50 (nM), BRAF biochemical kinase assay, BRAF
[6] = read-out: Kinase IC50 (nM), CRAF biochemical kinase assay, CRAF
[7] = read-out: HCT116 pERK IC50, HCT116 cells
[8] = lowest % inhibition value of the IC50 curve, HCT116
[9] = read-out: HCT116 pERK IC50 in μM, HCT116 cells, 1 h treatment
[10] = read-out: HCT116 pERK IC50, HCT116 cells, class symbol

SMILES	IC50 (CRAF; [3]) [nM]	IC50 (BRAF; [5]) [nM]	IC50 (CRAF; [6]) [nM]	HCT116 pERK % Ymin (lowest value of the IC50 curve) ([1]; HCT116 cells) [%]	IC50 [1, 7] [µM]	also measured
Cc1c(Cl)cccc1S(=O)(=O)Nc1ccc(F)c(Nc2ncnc3ccc(-n4cc(C(=O)N5CCCCC5CCO)c5ccccc54)nc23)c1F (centres unmarked)	> 50					IC50 (BRAF; [2]): 1 to 10 nM; HCT116 pERK Ymin % ([1]; HCT116 cells, Ymin in brackets): 0.4%; IC50 [1, 4]: < 0.5 µM
COC1CCN(c2cccc3c2nnn3-c2ccc3ncnc(Nc4c(F)ccc(NS(=O)(=O)c5cccc(Cl)c5Cl)c4F)c3n2)CC1		1 to 10	10 to 50	−4	< 0.5	
Cc1ccc(-c2ccc3ncnc(Nc4c(F)ccc(NS(=O)(=O)c5cccc(Cl)c5Cl)c4F)c3n2)o1		> 10	10 to 50	−14	1 to 10	
O=S(=O)(Nc1ccc(F)c(Nc2ncnc3ccc(-n4cnc5c(N6CCCC[C@H]6CO)cccc54)nc23)c1F)c1cccc(Cl)c1Cl		< 1	< 10	−10	< 0.5	
C[C@H]1CNCCN1C(=O)c1nn(-c2ccc3ncnc(Nc4c(F)ccc(NS(=O)(=O)c5cccc(Cl)c5Cl)c4F)c3n2)c2ccccc12						IC50 (BRAF; read-out: Kinase IC50 (nM) BRAF, tested form: formic acid salt): < 1 nM; IC50 (CRAF; read-out: Kinase IC50 (nM) CRAF, tested form: formic acid salt): 10 to 50 nM; HCT116 pERK Ymin % ([1]; HCT116 cells, Ymin in brackets, tested form: formic acid salt): 7.2%; IC50 ([1]; read-out: HCT116 pERK IC50, HCT116 cells, class symbol before the bracket, tested form: formic acid salt): < 0.5 µM
COCCOCCOc1cccc2c1nnn2-c1ccc2ncnc(Nc3c(F)ccc(NS(=O)(=O)c4cccc(Cl)c4Cl)c3F)c2n1		< 1	< 10	2	< 0.5	
O=S(=O)(Nc1ccc(F)c(Nc2ncnc3ccc(-n4cnc5c(N6CCCC[C@@H]6CO)cccc54)nc23)c1F)c1cccc(Cl)c1Cl		1 to 10	10 to 50	−8	< 0.5	
COC1(C)CCN(c2cccc3c2nnn3-c2ccc3ncnc(Nc4c(F)ccc(NS(=O)(=O)c5cccc(Cl)c5Cl)c4F)c3n2)CC1		1 to 10	10 to 50	−7	1 to 10	
Cc1c(Cl)cccc1S(=O)(=O)Nc1ccc(F)c(Nc2ncnc3ccc(-n4cc(S(=O)(=O)N5CCN(C)CC5)c5ccccc54)nc23)c1F	< 10					IC50 (BRAF; [2]): 1 to 10 nM; HCT116 pERK Ymin % ([1]; HCT116 cells, Ymin in brackets): −5.8%; IC50 [1, 4]: < 0.5 µM
Cc1c(F)cccc1S(=O)(=O)Nc1ccc(F)c(Nc2ncnc3ccc(-n4nc(C(=O)N5CCC[C@@H](O)C5)c5ccccc54)nc23)c1F	10 to 50					IC50 (BRAF; [2]): 1 to 10 nM; HCT116 pERK Ymin % ([1]; HCT116 cells, Ymin in brackets): −6.4%; IC50 [1, 4]: < 0.5 µM
O=S(=O)(Nc1ccc(F)c(Nc2ncnc3ccc(-n4cnc5c4CCCC5)nc23)c1F)c1ccccc1Cl	< 10					IC50 (BRAF; [2]): < 1 nM; HCT116 pERK Ymin % ([1]; HCT116 cells, Ymin in brackets): −2.6%; IC50 [1, 4]: 0.5 to 1 µM
O=S(=O)(Nc1ccc(F)c(Nc2ncnc3ccc(-n4cnc5c(N6CCC[C@@H](O)C6)cccc54)nc23)c1F)c1cccc(Cl)c1Cl		1 to 10	10 to 50	−11	< 0.5	
Cc1c(Cl)cccc1S(=O)(=O)Nc1ccc(F)c(Nc2ncnc3ccc(-n4nc(C(=O)N5CCC[C@@H](O)C5)c5ccccc54)nc23)c1F	10 to 50					IC50 (BRAF; [2]): < 1 nM; HCT116 pERK Ymin % ([1]; HCT116 cells, Ymin in brackets): −11%; IC50 [1, 4]: 0.5 to 1 µM
CC(C)(C)OC(=O)N1CCN(c2cccc3c2ncn3-c2ccc3ncnc(Nc4c(F)ccc(NS(=O)(=O)c5cccc(Cl)c5Cl)c4F)c3n2)CC1		> 10	> 50	−10	< 0.5	
Cc1c(S(=O)(=O)Nc2ccc(F)c(Nc3ncnc4ccc(-n5cnc6ccccc65)nc34)c2F)ccc(F)c1F	< 10					HCT116 pERK Ymin % [1, 8]: −9%; IC50 [1, 9]: 0.5 to 1 µM
O=S(=O)(Nc1ccc(F)c(Nc2ncnc3ccc(-n4cnc5ccccc54)nc23)c1F)c1cccc(Cl)c1Cl	< 10					HCT116 pERK Ymin % [1, 8]: 4%; IC50 [1, 9]: < 0.5 µM
Cc1ccccc1S(=O)(=O)Nc1ccc(F)c(Nc2ncnc3ccc(-n4cnc5ccccc54)nc23)c1F	< 10					HCT116 pERK Ymin % [1, 8]: −0.75%; IC50 [1, 9]: 1 to 10 µM
CC(C)(C#N)S(=O)(=O)c1cn(-c2ccc3ncnc(Nc4c(F)ccc(NS(=O)(=O)c5cccc(Cl)c5Cl)c4F)c3n2)c2ccccc12						IC50 [1, 10]: < 0.5 µM
O=S(=O)(Nc1ccc(F)c(Nc2ncnc3ccc(-n4cnc5c(N6CCC(F)(F)CC6)cccc54)nc23)c1F)c1cccc(Cl)c1Cl						IC50 [1, 10]: < 0.5 µM
O=S(=O)(Nc1ccc(F)c(Nc2ncnc3ccc(-c4ccn[nH]4)nc23)c1F)c1cccc(Cl)c1Cl						IC50 [1, 10]: 1 to 10 µM
